Source: patent US8097722B2 (priority 2008, dated 2012)

Experiments:
brain PMPMEase = assay: Inhibition of brain PMPMEase by OPs (brain membrane Triton X-100 extract); type: biochemical, porcine; conditions: 1 mM OP, 3 h, 37° C., brain membrane Triton X-100 extract (47 μg protein), N=3
liver PMPMEase = assay: Inhibition of liver PMPMEase by OPs (liver 40,000xg supernatant); type: biochemical, porcine; conditions: 1 mM OP, 1 h, 37° C., liver 40,000×g supernatant (19 μg protein), N=3

Structure (SMILES): CC(C)NP(=O)(F)NC(C)C
- Brain Mean (mean percent inhibition relative to the controls) (brain PMPMEase): 40%
- Liver Mean (mean percent inhibition relative to the controls) (liver PMPMEase): 94%

Some compounds may have been tested in ways that are not shown here.
